Here are results for two compounds from publication PMC3773341 (Biology Open, 2013).

Sequences of proteins named here, by UniProt entry; tags and fusion partners are left off. A change or cut given only in a name is not applied to a line headed by its entry.
UniProt O95180: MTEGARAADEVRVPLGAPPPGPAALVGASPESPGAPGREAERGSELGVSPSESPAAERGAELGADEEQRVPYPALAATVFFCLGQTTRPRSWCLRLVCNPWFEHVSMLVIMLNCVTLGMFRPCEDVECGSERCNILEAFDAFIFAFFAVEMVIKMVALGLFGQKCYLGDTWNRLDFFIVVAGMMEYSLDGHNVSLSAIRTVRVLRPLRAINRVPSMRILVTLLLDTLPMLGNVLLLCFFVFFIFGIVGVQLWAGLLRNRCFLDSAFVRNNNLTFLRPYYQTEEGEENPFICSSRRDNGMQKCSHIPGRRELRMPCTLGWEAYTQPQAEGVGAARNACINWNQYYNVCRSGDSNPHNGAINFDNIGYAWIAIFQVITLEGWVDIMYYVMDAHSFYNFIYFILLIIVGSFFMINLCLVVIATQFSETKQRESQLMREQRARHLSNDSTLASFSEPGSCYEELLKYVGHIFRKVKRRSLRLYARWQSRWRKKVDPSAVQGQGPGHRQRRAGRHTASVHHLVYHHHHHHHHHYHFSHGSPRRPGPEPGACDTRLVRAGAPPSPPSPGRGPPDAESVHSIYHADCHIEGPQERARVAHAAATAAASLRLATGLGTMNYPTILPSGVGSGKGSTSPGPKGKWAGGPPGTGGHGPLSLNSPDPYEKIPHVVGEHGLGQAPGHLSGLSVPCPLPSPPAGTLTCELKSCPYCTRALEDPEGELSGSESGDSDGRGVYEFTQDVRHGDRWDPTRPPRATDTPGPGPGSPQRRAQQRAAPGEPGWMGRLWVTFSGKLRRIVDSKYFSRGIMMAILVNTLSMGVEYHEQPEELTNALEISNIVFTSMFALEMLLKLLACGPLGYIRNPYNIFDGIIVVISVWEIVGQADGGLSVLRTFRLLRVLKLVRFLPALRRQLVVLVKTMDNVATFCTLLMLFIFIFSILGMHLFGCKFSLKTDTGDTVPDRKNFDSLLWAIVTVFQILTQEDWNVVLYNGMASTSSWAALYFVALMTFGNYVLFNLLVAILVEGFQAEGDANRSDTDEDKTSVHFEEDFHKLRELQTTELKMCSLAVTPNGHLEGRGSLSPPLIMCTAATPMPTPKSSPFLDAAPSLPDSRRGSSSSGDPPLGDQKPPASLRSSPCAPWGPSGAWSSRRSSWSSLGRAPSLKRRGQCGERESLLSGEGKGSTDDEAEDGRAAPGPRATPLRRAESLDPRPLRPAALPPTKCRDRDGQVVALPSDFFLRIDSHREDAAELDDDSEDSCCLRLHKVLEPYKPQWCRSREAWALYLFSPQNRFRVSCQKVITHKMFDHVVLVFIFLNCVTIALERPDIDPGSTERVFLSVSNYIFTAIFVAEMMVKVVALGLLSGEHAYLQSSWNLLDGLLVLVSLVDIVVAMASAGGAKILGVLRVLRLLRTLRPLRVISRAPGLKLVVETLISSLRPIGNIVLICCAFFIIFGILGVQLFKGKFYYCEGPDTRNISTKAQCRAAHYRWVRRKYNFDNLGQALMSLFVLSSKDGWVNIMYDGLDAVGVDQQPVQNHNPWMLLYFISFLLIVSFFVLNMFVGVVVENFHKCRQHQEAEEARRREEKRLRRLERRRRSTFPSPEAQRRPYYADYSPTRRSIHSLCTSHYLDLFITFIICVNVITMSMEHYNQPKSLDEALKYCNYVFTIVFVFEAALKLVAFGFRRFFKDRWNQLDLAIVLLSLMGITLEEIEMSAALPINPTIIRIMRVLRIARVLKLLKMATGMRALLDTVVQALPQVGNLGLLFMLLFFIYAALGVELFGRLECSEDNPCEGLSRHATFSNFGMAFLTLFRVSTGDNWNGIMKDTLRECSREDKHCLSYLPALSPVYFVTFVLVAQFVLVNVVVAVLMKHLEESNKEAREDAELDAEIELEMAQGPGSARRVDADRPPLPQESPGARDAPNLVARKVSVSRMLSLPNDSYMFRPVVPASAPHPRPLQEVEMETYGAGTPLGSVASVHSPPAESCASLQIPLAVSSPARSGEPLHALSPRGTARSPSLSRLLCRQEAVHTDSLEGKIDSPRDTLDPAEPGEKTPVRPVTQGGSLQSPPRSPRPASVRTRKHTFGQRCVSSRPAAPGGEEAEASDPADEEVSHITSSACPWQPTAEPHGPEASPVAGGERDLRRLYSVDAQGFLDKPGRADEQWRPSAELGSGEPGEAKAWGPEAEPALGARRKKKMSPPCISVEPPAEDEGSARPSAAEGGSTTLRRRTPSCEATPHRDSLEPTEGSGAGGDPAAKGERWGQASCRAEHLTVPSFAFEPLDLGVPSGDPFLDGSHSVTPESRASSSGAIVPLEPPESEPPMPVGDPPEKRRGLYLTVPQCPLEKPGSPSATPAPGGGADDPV

The target of the assay is T1, Cav3.2 (α1H) T-type Ca2+ channel (Homo sapiens, UniProt O95180).
T1 construct: gene CACNA1H

The structures appear in SMILES notation.

Take `Fc1ccc(C(c2ccc(F)cc2)N2CCN(C/C=C/c3ccccc3)CC2)cc1` [Flu, flunarizine]: the “whole-cell patch clamp of T-type current in LNCaP-CTL, LNCaP-NE and Cav3.2-overe” value amounted to 5 µM. Regarding `COCC(=O)O[C@]1(CCN(C)CCCc2nc3ccccc3[nH]2)CCc2cc(F)ccc2[C@@H]1C(C)C` [mibefradil], the “whole-cell patch clamp of T-type current in LNCaP-CTL, LNCaP-NE and Cav3.2-overe” value is on record as 5 µM.
